Data on one compound can be found in patent US20260183304A1, “COMBINATION OF A TYROSINE KINASE INHIBITOR AND A PRO-INFLAMMATORY AGENT FOR TREATING CANCER” (MDX Management LLC, priority 2022, published 2026).

This assay deals with MC38, KPC and LLC tumor models. Description: Syngeneic murine tumor models, TKi alone or with proinflammatory activators. To be noted: TLR or Sting agonists induced. The assay is classed as in vivo, mice. The protocol:
In vivo tests. […]. […] […].
[…]. Tumor volume changes were recorded.

Structures are written as SMILES.

As to `Cc1nc(Nc2ncc(C(=O)Nc3c(C)cccc3Cl)s2)cc(N2CCN(CCO)CC2)n1` [Dasatinib, N-(2-chloro-6-methylphenyl)-2-[[6-[4-(2-hydroxyethyl)-1-piperazinyl]-2-methyl-4-pyrimidinyl]amino]-5-thiazole carboxamide monohydrate], the “neutrophil infiltration into tumors” value is on record as “moderately curbs down”.
